Tested on: KDM4DJmjC (M1–L358)
Assay: MALDI-TOF demethylation assay, KDM4DJmjC
Type: biochemical, human
Details: KDM4DJmjC 2.4 µM, peptide 5.0 µM, 1 hr, duplicates
Excerpt: To investigate whether H3KP9me3 can be demethylated by other human KDM4 subfamily members, recombinant KDM4AJmjC (M1–L359) and KDM4DJmjC (M1–L358) were produced in E. coli following an adaption of literature procedures[38],[39]. […] No evidence for further demethylation was accrued. […] To test the ability of KDM3 and KDM7 subfamily representatives to demethylate H3KP9me2 or H3KP9me3, KDM3AJmjC (T515–S1317) and KDM7BJmjC (M37–N483) were produced using baculovirus/sf9 and E. coli expression systems, respectively[40],[41]. The synthesis of a histone H3 mimic peptide H3KP9me2 substrate is challenging as the tri-alkylated phosphine group is susceptible to oxidation during synthesis of the protected amino acid and during SPPS requiring oxygen-free conditions. Thus, to investigate if KDM3AJmjC or KDM7BJmjC can catalyse demethylation of H3KP9me2, an appropriate H3KP9me2 substrate was prepared in situ from H3KP9me3 using KDM4EJmjC (2.0 µM), in the presence of KDM3AJmjC (2.0 µM) or KDM7BJmjC (2.0 µM).
The following purified reader domains: TAF3PHD (R857-K924), KDM5APHD3 (JARID1A, M1489-V1641), BPTFPHD (L2583-N2751), KDM4ATTD (JMJD2A, Q897-P1011) and SGF29TTD (R115-K293) were prepared as reported[10],[22]–[26]. The histone lysine demethylase were produced and purified to high purity via reported procedures KDM3A (JMJD1A, T515-S1317)[41], KDM4AJmjC[39] […]

## ARTKQTAR(Kme3)STGGKA [H3K9me3, natural trimethyllysine control peptide, histone H3 residues 1–15, reference compound]
  demethylation: clear demethylation activity

From paper PMC7613515, “Reading and erasing of the phosphonium analogue of trimethyllysine by epigenetic proteins” (Communications Chemistry, 2022)
